Assay results reported in US20120230918A1, “NON-INVASIVE IN VIVO OPTICAL IMAGING METHOD” (Hoffmann-La-Roche Inc., priority 2009, published 2012).

Test: Biacore binding characteristics of labeled versus non-labeled Herceptin

**Q.** With “Cy5-labeled Herceptin: Herceptin labeled with Cy5” as the substance, how does the “binding characteristics compared to non-labeled Herceptin (Biacore)” value read?
**A.** Its value is “same binding characteristics”.
